Measured values reported in patent US10183913B2, “Pyrazole compound” (Sumitomo Dainippon Pharma Co., Ltd., priority 2010, dated 2019).

Sequences of proteins named here, by UniProt entry; tags and fusion partners are left off. Residues count along the entry.
UniProt P28335, 33-458 limits assumed: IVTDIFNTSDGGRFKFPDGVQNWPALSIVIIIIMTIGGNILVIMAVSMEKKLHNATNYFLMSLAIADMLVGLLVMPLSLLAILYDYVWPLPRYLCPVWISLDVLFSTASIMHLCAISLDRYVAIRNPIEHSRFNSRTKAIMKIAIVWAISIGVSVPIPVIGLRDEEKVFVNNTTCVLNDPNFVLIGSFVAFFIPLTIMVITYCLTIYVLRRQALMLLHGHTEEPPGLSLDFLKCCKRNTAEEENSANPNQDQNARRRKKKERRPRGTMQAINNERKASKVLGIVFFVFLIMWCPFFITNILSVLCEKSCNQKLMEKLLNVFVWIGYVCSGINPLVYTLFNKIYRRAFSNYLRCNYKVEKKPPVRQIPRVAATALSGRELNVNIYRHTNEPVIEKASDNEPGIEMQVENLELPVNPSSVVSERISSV

Target: human serotonin 2C receptor (h-5-HT2C) (Homo sapiens (Human), UniProt P28335)
Test: 5-HT2C receptor agonistic action assay (FLIPR Calcium 4 Assay kit, h-5-HT2C/CHO cells)
Format: cell-based
Details: test material 10 μmol/L, 100% = 10 μmol/L 5-HT, −100% = 10 μmol/L SB206553, below 0% = inverse agonistic action

CNCc1cc(OCc2ccccc2)n(CC2(C)CCCCC2)n1
Test Ex. 3: 5-HT2C receptor agonistic action: −103%

CNCc1cc(OCc2ccccc2C#N)n(CC2CCCC2)n1
Test Ex. 3: 5-HT2C receptor agonistic action: −66%

CNCc1cc(NCc2ccccc2)n(CC2CCCCC2)n1
Test Ex. 3: 5-HT2C receptor agonistic action (tested form: 2HCl): −120%

CCC(CC)CCn1nc(CNC)cc1OCc1cc(F)ccc1F
Test Ex. 3: 5-HT2C receptor agonistic action (tested form: HCl): −115%

CNC(C)c1cc(OCc2cc(F)ccc2C)n(CCC(C)C)n1 (centres unmarked)
Test Ex. 3: 5-HT2C receptor agonistic action: −87%
